The text below walks through data of ChEMBL document CHEMBL2429794, “Tuning the antibacterial activity of amphiphilic neamine derivatives and comparison to paromamine homologues” (J Med Chem, 2013).

The test system of one experiment is Escherichia coli. As to conditions: ATCC 25922.
Another experiment deals with Acinetobacter lwoffii. As to the kind of experiment: Antibacterial activity against Acinetobacter lwoffii ATCC 17925 after 24 hrs by geometric microdilution method. In kind it is functional.
The next experiment deals with Staphylococcus aureus. As to conditions: ATCC 25923.

Take GENTAMICIN: the MIC in the experiment with Escherichia coli is less than 0.5 µg/mL; with Acinetobacter lwoffii it was 0.5 µg/mL; in the experiment with Staphylococcus aureus, 0.5 µg/mL.
